Patent US11427783B2, “Perfuming compositions” (Firmenich SA, priority 2016, dated 2022)

Assay: physchem

Question: For `COC(=O)Cc1ccccc1` [METHYL PHENYLACETATE], which logP is on record?
Answer: 1.98
